Results as given in patent US7524517B2, “Methods and compositions for P2X receptor calcium entry channels and other calcium entry mechanisms” (UAB Research Foundation, priority 2003, dated 2009).

Test system: Ca^2+ entry channels
Assay: Fura-2 quenching experiment (Mn2+ entry)
Settings: MnCl2 500 μM; zinc 10-50 μM and/or ATP 10-100 μM

| SMILES | Mn2+ entry (Fura-2 quenching) |
| --- | --- |
| Nc1ncnc2c1ncn2[C@@H]1O[C@H](COP(=O)(O)OP(=O)(O)OP(=O)(O)O)[C@@H](O)[C@H]1O [ATP, reference compound] | potent Ca^2+ entry channel agonists |
| [Zn+2] [zinc] | potent Ca^2+ entry channel agonists |
